Data reported in ChEMBL document CHEMBL6121021, “Design and Synthesis of Topoisomerases-Histone Deacetylase Dual Targeted Quinoline-Bridged Hydroxamates as Anticancer Agents” (J Med Chem, 2025).
pIC50: −log10 of the molar value.

Molecular target: T1, Polyamine deacetylase HDAC10 (Homo sapiens, UniProt Q969S8)
T1 sequence (Q969S8 whole entry): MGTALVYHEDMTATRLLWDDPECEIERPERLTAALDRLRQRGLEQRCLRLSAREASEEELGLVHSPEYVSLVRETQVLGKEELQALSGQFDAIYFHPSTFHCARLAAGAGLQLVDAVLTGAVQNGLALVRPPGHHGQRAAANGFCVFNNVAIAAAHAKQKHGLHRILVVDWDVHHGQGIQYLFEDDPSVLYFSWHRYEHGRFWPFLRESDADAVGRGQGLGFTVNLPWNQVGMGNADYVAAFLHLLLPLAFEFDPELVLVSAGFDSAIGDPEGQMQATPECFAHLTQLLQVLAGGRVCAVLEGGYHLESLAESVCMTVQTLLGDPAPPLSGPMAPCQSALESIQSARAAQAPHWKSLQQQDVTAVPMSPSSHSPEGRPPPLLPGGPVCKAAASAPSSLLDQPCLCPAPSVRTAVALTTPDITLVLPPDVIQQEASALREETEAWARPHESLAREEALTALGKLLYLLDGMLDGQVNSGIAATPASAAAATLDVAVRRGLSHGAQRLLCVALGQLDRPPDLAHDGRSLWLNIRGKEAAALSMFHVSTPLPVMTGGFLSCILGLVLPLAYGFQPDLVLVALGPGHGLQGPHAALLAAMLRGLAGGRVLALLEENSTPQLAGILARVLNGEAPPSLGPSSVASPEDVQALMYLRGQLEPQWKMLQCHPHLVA
Assay: Inhibition of N-terminal FLAG-tagged recombinant human HDAC10 (2 to 631 residues) extracted from baculovirus infected Sf9 cells by fluorogenic assay

## O=C(CCCCCCC(=O)Nc1ccccc1)NO [VORINOSTAT]
  pIC50: 7.63
